Read-outs that look alike come from different tables or passages of the source.
Experiments:
[1] = tested on: α1 subunit of GABAA receptor; details: for selectivity α2/α1 ratio: ratio of α2 and α1 affinities (Ki)
Description: % specific binding=(X−N/T−N)×100

Chains of the proteins cited; added tags and fusions are not shown. Residues count along the entry.
UniProt P18508, 39-466: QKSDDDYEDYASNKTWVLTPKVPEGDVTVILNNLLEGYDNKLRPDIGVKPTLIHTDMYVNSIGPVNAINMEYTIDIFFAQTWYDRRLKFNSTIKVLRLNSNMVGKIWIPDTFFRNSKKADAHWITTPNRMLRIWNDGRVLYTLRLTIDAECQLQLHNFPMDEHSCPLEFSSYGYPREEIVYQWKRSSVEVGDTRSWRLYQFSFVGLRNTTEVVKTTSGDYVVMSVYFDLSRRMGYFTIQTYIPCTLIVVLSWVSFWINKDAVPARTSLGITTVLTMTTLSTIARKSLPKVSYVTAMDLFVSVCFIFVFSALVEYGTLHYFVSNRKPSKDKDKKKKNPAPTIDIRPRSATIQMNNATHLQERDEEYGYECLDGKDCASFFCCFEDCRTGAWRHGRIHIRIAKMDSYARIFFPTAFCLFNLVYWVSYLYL
UniProt P23576, 29-451: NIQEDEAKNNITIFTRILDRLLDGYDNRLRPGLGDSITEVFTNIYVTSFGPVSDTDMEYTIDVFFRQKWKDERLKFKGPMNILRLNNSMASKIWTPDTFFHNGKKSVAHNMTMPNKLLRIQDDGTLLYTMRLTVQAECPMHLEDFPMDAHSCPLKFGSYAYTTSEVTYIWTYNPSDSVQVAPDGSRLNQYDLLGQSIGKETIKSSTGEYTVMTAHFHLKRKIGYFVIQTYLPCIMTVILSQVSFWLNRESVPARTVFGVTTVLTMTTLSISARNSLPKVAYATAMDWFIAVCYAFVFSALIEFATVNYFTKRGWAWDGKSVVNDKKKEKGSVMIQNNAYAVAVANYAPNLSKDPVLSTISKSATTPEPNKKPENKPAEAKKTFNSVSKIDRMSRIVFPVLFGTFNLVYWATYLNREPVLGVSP

HepG2 cells = test: In vitro cell toxicity in HepG2 at 24 h (MTS); type: cell-based, human; details: 100 μM
Procedure: In Vitro Determination of Cell Toxicity in HepG2 at 24 h
HepG2 cells (human hepatocellular carcinoma) were obtained from the American Type Culture Collection (ATCC) and cultured in Eagle's Minimum Essential Medium (Eagle) with Earle's balanced salt solution adjusted to contain 1.87 mM Glutamax™ I, 0.1 mM non-essential amino acids, 1.0 mM sodium pyruvate, 100000 U/L penicillin, 10000 μg/L streptomycin 90%; fetal bovine serum, 10%. Promega CellTiter 96® Aqueous Non-Radioactive Cell Viability Assay contains the tetrazolium compound [3-(4,5-dimethylthiazol-2-yl)-5-(3-carboxymethoxyphenyl)-2-(4-sulfophenyl)-2H-tetrazolium, inner salt (MTS). The conversion of MTS into the aqueous soluble formazan product is accomplished by dehydrogenase enzymes found in metabolically active cells. The quantity of formazan product is directly proportional to the number of living cells in culture.
Compounds were dissolved in DMSO to achieve an initial concentration of 100 mM. Serial dilutions were made from this stock solution into DMSO to achieve concentrations of 10, 1, 0.1 and 0.01 mM. The stock solution and serial dilutions were then diluted 1:100 with cell culture medium to obtain […] final assay concentrations of […]. The final DMSO concentration in all wells was 1% v/v. HepG2 cells were incubated with test compounds for 24 hours. Relative cell viability was determined spectrophotometrically at 490 nm following the addition of the MTS dye and further one-hour incubation. Tamoxifen was used as the positive control.
The percent absorbance of the samples treated with the test article was compared to the untreated sample to calculate the percentage of control.

[2] = molecular target: α2 subunit of GABAA receptor (Rattus norvegicus, UniProt P18508+P23576); test: biochemical; details: for inhibition at 10 µM: read-out: % Inhib 10^−5 M; for inhibition at 0.1 µM: read-out: % Inhib 10^−7 M

| Structure (SMILES) | selectivity α2/α1 ratio [1] | cell toxicity in HepG2, percentage of control (relative cell viability) (HepG2 cells) [%] | inhibition at 10 µM [2] [%] | inhibition at 0.1 µM [2] [%] | increased selectivity (α2/α1 ratio) ([1]; versus example 3 in WO2005014597) [%] | increased selectivity (α2/α1 ratio) ([1]; versus indiplon) [%] |
| --- | --- | --- | --- | --- | --- | --- |
| CN(c1cccc(-c2ccnc3c(C(=O)c4cccs4)cnn23)c1)S(C)(=O)=O [Example 3 WO2005014597, N-{3-[3-(thiophene-2-carbonyl)-pyrazolo[1,5-a]pyrimidin-7-yl]-phenyl}-N-methyl-methanesulfonamide, reference compound] | 5.0 |  |  |  |  |  |
| C#CCN(c1cccc(-c2ccnc3c(C(=O)c4cccs4)cnn23)c1)S(C)(=O)=O [Example 16 WO2005014597, N-{3-[3-(thiophene-2-carbonyl)-pyrazolo[1,5-a]pyrimidin-7-yl]-phenyl}-N-prop-2-ynyl-methanesulfonamide, reference compound] |  | 53.2 | 100 | 87.2 |  |  |
| CC(=O)N(C)c1cccc(-c2ccnc3c(C(=O)c4cccs4)cnn23)c1 [Indiplon, N-{3-[3-(thiophene-2-carbonyl)-pyrazolo[1,5-a]pyrimidin-7-yl]-phenyl}-N-methyl-acetamide, reference compound] | 7.7 | 69.8 | 99.2 | 65.7 |  |  |
| CC(=O)N(C)c1cc(-c2ccnc3c(C(=O)c4cccs4)cnn23)ccc1F [Preparative example 2, N-{2-Fluoro-5-[3-(thiophene-2-carbonyl)-pyrazolo[1,5-a]pyrimidin-7-yl]-phenyl}-N-methyl-acetamide] | 9.6 | 107.19 |  |  | 92 | 25 |

— patent US20130331610A1, “Halogenated Pyrazolo[1,5-A]Pyrimidines, Processes, Uses, Compositions and Intermediates” (priority 2005, published 2013)
